Measured values from article PMC11452662, “Biofunctionalized dissolvable hydrogel microbeads enable efficient characterization of native protein complexes” (Nature Communications, 2024).

Sequences of proteins named here, by UniProt entry; tags and fusion partners are left off.
UniProt P69905, whole entry, chain 1 of 2: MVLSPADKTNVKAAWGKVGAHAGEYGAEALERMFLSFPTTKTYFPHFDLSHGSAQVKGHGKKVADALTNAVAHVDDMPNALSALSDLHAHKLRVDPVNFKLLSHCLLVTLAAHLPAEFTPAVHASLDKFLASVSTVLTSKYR

Molecular target: Hemoglobin bait conjugated to SNAP beads (UniProt P69905)
Experiment: native MS; tandem MS with increasing collisional energy of the bait-target complex Hp(2)Hb(4)Ab(1), Hb as bait
Settings: scale: Hb subunits per Hp protomer

## Hp of the Hp(2)Ab(1) complex
  stoichiometry N: 2
